Measurements: ChEMBL document CHEMBL3286180, “Efficacious inhaled PDE4 inhibitors with low emetic potential and long duration of action for the treatment of COPD” (J Med Chem, 2014)

The chains behind the UniProt entries cited, without tags or fusion partners. Where a name states a change or a piece, a line headed by the entry shows the natural chain unless it says otherwise.
UniProt Q07343: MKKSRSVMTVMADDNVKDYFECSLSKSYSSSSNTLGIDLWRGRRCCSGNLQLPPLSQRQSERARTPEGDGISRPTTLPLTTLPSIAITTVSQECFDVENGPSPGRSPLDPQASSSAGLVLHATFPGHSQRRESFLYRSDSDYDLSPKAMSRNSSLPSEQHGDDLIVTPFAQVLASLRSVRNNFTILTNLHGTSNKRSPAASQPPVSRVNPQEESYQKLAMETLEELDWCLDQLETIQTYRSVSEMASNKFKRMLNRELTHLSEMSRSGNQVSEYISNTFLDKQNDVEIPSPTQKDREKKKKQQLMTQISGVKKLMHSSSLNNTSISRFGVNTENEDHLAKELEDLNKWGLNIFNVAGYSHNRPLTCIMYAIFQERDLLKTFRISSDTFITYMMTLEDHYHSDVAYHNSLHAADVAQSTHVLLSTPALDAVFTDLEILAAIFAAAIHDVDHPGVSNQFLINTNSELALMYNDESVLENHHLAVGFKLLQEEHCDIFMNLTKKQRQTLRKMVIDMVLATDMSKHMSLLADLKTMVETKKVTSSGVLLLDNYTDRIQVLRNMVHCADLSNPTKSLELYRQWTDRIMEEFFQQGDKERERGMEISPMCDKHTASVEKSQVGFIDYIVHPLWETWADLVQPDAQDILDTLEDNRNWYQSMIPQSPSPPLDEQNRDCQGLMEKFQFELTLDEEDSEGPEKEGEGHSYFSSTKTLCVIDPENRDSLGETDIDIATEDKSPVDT
UniProt Q08499: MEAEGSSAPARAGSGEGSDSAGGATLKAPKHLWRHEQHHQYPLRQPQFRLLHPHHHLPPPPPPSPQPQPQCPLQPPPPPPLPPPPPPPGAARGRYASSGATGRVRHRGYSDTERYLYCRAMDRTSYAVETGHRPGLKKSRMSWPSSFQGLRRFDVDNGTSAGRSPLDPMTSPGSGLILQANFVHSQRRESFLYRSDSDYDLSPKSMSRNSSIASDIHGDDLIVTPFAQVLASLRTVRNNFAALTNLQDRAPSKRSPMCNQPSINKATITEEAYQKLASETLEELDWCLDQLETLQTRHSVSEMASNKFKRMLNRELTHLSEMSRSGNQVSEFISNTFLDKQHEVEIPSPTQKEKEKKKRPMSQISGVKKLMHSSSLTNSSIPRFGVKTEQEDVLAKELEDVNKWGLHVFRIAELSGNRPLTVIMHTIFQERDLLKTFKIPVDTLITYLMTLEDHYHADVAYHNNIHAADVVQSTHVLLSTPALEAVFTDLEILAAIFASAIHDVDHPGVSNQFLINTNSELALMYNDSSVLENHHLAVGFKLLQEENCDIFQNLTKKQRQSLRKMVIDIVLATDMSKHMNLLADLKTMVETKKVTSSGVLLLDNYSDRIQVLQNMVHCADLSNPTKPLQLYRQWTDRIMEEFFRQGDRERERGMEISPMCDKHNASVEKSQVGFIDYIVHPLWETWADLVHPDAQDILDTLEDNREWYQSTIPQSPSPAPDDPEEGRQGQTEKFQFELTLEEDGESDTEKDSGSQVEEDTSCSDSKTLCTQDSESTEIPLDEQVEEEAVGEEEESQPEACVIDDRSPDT

Tests used:
[1] = target: 3',5'-cyclic-AMP phosphodiesterase 4B (Homo sapiens, UniProt Q07343); assay: Inhibition of human recombinant PDE4B at high-affinity rolipram binding site
[2] = target: 3',5'-cyclic-AMP phosphodiesterase 4D (Homo sapiens, UniProt Q08499); assay: Inhibition of human PDE4D using [3H]cAMP by packard topcount scintillation counting analysis

SMILES: Cc1ccc(O)c(C(=O)N[C@H]2CC[C@@H](NC(=O)c3cc(F)cnc3Oc3cccc(-c4ccc(CN5C[C@@H](C)N[C@@H](C)C5)cc4CN4CCOCC4)c3)CC2)c1
- pIC50 [1]: > 8.00
- pIC50 [2]: 10.70

pIC50: −log10 of the molar value.
